Assay results: patent publication US20220042033A1, “COMPOSITION AND METHOD FOR CONFERRING AND/OR ENHANCING TOLERANCE AGAINST HERBICIDES BY USING VARIANTS OF PPO” (FarmHannong Co., Ltd., priority 2017, published 2022)

The chains behind the UniProt entries cited, without tags or fusion partners. Residues count along the entry.
UniProt P56601, whole entry L332T: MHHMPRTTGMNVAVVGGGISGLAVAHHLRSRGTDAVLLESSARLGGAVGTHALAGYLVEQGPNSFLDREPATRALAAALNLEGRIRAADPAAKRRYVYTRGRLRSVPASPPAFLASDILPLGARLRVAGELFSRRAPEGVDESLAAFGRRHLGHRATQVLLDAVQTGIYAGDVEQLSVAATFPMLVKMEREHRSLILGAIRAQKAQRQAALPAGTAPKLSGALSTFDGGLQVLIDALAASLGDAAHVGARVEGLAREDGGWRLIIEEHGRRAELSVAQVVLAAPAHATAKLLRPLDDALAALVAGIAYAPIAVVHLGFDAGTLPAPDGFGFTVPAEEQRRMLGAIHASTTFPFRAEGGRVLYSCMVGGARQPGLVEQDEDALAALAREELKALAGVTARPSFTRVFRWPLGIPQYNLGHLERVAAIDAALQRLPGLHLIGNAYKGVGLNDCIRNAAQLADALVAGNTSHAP
UniProt P56601, whole entry R95A: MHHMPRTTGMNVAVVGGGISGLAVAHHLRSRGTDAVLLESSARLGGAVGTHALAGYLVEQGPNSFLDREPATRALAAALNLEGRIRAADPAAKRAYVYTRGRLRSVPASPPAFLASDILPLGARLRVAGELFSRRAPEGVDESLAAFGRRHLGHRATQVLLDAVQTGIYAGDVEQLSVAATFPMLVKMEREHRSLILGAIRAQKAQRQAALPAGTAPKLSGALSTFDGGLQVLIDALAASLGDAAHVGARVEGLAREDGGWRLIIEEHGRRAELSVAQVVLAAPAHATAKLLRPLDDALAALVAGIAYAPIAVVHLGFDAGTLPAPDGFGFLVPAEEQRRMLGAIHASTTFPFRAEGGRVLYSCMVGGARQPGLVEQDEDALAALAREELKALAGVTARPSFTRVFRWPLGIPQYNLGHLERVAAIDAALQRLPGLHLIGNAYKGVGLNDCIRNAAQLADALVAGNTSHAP
UniProt P56601, whole entry I311M: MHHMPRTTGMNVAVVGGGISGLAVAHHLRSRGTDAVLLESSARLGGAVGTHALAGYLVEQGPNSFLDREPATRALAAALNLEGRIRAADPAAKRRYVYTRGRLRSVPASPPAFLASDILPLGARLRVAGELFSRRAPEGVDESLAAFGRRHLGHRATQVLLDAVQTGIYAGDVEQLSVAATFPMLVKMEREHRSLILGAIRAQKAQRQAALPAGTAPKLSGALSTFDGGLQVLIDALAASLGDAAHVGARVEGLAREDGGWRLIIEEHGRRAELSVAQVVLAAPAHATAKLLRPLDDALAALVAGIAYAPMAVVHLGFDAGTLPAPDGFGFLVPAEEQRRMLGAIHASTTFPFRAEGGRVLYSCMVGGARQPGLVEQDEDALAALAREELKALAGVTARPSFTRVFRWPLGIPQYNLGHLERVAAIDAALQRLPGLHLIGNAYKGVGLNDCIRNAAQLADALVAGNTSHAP
UniProt P56601, whole entry A170L: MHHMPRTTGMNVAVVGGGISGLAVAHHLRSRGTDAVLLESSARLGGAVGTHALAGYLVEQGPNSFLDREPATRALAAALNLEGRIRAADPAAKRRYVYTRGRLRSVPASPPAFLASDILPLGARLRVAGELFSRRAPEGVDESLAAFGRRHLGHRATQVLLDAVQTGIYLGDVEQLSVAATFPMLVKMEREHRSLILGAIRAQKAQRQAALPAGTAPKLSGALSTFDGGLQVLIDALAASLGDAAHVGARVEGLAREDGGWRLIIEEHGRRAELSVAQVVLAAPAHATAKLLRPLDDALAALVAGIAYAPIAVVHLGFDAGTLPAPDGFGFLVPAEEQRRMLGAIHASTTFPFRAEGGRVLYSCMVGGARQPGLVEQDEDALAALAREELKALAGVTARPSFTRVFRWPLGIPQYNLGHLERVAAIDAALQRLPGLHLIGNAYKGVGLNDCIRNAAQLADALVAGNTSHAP
UniProt P56601, whole entry I168C: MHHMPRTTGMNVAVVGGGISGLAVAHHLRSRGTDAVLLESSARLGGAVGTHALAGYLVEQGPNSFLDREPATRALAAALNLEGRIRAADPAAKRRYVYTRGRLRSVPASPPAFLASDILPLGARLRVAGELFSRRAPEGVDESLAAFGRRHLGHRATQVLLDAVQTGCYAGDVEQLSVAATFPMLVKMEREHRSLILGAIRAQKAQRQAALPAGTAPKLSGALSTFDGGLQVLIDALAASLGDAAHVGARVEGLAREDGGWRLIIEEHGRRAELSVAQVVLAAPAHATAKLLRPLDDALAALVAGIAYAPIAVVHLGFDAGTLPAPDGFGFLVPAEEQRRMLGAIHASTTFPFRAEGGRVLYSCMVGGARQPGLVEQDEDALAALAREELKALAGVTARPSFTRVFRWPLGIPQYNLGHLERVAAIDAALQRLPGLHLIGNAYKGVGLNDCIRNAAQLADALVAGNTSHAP
UniProt P56601, whole entry A170C: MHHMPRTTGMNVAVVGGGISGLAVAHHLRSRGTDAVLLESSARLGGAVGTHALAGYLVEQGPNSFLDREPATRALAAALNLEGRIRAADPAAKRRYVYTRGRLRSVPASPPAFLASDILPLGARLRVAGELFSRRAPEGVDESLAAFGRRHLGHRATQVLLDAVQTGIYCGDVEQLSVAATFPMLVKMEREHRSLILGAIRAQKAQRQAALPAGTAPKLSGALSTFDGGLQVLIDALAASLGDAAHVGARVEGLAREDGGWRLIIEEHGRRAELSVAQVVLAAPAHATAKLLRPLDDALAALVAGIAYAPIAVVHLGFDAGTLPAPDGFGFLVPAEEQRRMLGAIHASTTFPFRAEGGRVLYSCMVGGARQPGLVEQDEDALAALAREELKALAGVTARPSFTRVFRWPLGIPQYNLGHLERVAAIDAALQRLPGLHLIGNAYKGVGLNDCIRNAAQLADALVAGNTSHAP
UniProt A0A087SQM0, entry or part of it A215L: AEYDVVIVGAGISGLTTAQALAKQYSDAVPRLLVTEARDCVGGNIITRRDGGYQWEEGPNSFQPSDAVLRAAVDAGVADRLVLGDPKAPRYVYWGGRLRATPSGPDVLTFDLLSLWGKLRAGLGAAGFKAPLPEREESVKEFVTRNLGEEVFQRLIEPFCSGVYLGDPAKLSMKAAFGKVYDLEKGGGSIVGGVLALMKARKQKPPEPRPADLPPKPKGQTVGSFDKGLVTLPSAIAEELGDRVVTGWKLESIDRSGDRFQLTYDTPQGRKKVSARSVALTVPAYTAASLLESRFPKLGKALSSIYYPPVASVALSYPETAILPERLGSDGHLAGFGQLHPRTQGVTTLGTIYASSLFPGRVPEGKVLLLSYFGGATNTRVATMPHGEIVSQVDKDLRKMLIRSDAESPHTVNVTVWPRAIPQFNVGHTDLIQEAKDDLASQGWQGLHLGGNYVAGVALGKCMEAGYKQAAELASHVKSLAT
UniProt A0A087SQM0, entry or part of it R140A: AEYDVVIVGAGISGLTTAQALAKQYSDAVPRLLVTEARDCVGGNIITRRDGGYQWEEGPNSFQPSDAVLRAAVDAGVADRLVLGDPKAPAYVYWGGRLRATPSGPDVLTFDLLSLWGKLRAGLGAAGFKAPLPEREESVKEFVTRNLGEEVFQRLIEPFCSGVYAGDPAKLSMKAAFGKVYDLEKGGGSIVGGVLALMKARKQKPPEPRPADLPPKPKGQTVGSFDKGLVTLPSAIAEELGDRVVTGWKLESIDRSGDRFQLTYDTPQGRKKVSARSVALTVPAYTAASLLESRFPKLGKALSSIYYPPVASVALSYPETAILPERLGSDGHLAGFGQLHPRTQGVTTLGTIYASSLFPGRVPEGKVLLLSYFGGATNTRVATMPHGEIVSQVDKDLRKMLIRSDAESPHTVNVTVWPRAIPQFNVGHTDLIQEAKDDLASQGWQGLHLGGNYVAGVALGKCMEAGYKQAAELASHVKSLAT
UniProt A0A087SQM0, 51-532: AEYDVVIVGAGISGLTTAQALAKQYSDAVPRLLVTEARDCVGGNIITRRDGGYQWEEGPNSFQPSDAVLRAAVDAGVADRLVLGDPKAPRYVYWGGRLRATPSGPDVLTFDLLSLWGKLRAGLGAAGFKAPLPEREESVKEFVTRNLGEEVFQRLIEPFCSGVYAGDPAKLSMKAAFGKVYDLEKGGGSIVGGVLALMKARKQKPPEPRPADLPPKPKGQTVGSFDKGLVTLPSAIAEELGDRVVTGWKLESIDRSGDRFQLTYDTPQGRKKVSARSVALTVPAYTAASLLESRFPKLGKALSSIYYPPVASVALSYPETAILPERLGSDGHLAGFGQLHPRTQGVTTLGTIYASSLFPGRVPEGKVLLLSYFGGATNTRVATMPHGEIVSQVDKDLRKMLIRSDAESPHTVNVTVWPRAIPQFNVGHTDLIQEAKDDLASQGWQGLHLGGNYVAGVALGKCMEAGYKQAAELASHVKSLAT
UniProt A0A087SQM0, entry or part of it V213C: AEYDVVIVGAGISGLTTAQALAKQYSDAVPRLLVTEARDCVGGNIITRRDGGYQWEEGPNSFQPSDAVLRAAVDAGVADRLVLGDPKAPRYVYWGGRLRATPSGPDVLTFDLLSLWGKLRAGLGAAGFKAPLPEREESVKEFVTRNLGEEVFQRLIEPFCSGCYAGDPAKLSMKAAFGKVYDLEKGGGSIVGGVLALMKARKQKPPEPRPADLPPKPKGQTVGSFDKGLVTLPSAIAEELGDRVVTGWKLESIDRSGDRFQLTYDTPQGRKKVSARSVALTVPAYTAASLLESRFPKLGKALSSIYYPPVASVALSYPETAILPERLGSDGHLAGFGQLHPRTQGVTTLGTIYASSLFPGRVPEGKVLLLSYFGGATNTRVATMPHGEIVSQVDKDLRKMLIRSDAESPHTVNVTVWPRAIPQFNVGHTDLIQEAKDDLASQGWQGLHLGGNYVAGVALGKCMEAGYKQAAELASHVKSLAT

Key:
[1] = biological target: T1, Myxococcus xanthus MxPPO (SEQ ID NO: 3) variant L332T, fused to MBP (Myxococcus xanthus, UniProt P56601, L332T); assay: PPO enzyme inhibition assay (IC50), MBP-fused PPO (Table 15); format: biochemical
T1 construct: made in house; host or cells: BL21 CodonPlus(DE3) E. coli

[2] = tested on: E. coli BT3(ΔPPO) transformed with Myxococcus xanthus MxPPO (SEQ ID NO: 3) variant M365V; assay: Herbicide tolerance test in PPO-deficient E. coli BT3(ΔPPO), growth on plates; format: cell-based; conditions: Table 9, light, tiafenacil to 2000 μM, saflufenacil to 200 μM, flumioxazin to 100 μM
[3] = biological target: T2, Myxococcus xanthus MxPPO (SEQ ID NO: 3) variant R95A, fused to MBP (Myxococcus xanthus, UniProt P56601, R95A); assay: biochemical
T2 construct: For encoding the PPO protein (MxPPO); made in house; host or cells: BL21 CodonPlus(DE3) E. coli

[4] = tested on: E. coli BT3(ΔPPO) transformed with Myxococcus xanthus MxPPO (SEQ ID NO: 3) variant R95A + M365I; conditions: Table 10, light, flumioxazin to 400 μM, sulfentrazone to 1000 μM
[5] = tested on: E. coli BT3(ΔPPO) transformed with Myxococcus xanthus MxPPO (SEQ ID NO: 3) variant M365I; assay: Herbicide tolerance test in PPO-deficient E. coli BT3(ΔPPO), growth on plates; format: cell-based; conditions: Table 9, light, tiafenacil to 2000 μM, saflufenacil to 200 μM, flumioxazin to 100 μM
[6] = tested on: E. coli BT3(ΔPPO) transformed with Auxenochlorella protothecoides ApPPO1 (SEQ ID NO: 1) variant Y422I (YI); format: cell-based; conditions: Table 7, light, 37° C., 16 to 20 hours, vs wild type at highest herbicide concentration
[7] = tested on: E. coli BT3(ΔPPO) transformed with Myxococcus xanthus MxPPO (SEQ ID NO: 3) variant I311M; assay: Herbicide tolerance test in PPO-deficient E. coli BT3(ΔPPO), growth on plates; format: cell-based; conditions: Table 9, light, tiafenacil to 2000 μM, saflufenacil to 200 μM, flumioxazin to 100 μM
[8] = tested on: E. coli BT3(ΔPPO) transformed with Myxococcus xanthus MxPPO (SEQ ID NO: 3) variant A170L; assay: as above; format: cell-based; conditions: Table 9, light, tiafenacil to 2000 μM, saflufenacil to 200 μM, flumioxazin to 100 μM
[9] = tested on: E. coli BT3(ΔPPO) transformed with Myxococcus xanthus MxPPO (SEQ ID NO: 3) variant A170C; assay: as above; format: cell-based; conditions: Table 9, light, tiafenacil to 2000 μM, saflufenacil to 200 μM, flumioxazin to 100 μM
[10] = tested on: E. coli BT3(ΔPPO) transformed with Myxococcus xanthus MxPPO (SEQ ID NO: 3) variant R95A + M365V; conditions: Table 10, light, flumioxazin to 400 μM, sulfentrazone to 1000 μM
[11] = biological target: T3, Myxococcus xanthus MxPPO (SEQ ID NO: 3) variant I311M, fused to MBP (Myxococcus xanthus, UniProt P56601, I311M); assay: biochemical
T3 construct: made in house; host or cells: BL21 CodonPlus(DE3) E. coli

[12] = biological target: T4, Myxococcus xanthus MxPPO (protoporphyrinogen IX oxidase), wild type, SEQ ID NO: 3, fused to MBP (Myxococcus xanthus, UniProt P56601); assay: PPO enzyme inhibition assay (IC50), MBP-fused PPO (Table 15); format: biochemical
T4 construct: For encoding the PPO protein (MxPPO); made in house; host or cells: BL21 CodonPlus(DE3) E. coli

[13] = tested on: E. coli BT3(ΔPPO) transformed with Auxenochlorella protothecoides ApPPO1 (SEQ ID NO: 1) variant A215L (AL); assay: Herbicide tolerance test in PPO-deficient E. coli BT3(ΔPPO), growth on plates; format: cell-based; conditions: Table 7, light, 37° C., 16 to 20 hours, vs wild type at highest herbicide concentration
[14] = biological target: T5, Myxococcus xanthus MxPPO (SEQ ID NO: 3) variant A170L, fused to MBP (Myxococcus xanthus, UniProt P56601, A170L); assay: biochemical
T5 construct: made in house; host or cells: BL21 CodonPlus(DE3) E. coli

[15] = biological target: T6, Myxococcus xanthus MxPPO (SEQ ID NO: 3) variant I168C, fused to MBP (Myxococcus xanthus, UniProt P56601, I168C); assay: PPO enzyme inhibition assay (IC50), MBP-fused PPO (Table 15); format: biochemical
T6 construct: For encoding the PPO protein (MxPPO); made in house; host or cells: BL21 CodonPlus(DE3) E. coli

[16] = biological target: T7, Myxococcus xanthus MxPPO (SEQ ID NO: 3) variant A170C, fused to MBP (Myxococcus xanthus, UniProt P56601, A170C); assay: as above; format: biochemical
T7 construct: made in house; host or cells: BL21 CodonPlus(DE3) E. coli

[17] = tested on: E. coli BT3(ΔPPO) transformed with Myxococcus xanthus MxPPO (SEQ ID NO: 3) variant M365L; assay: Herbicide tolerance test in PPO-deficient E. coli BT3(ΔPPO), growth on plates; format: cell-based; conditions: Table 9, light, tiafenacil to 2000 μM, saflufenacil to 200 μM, flumioxazin to 100 μM
[18] = tested on: E. coli BT3(ΔPPO) transformed with Auxenochlorella protothecoides ApPPO1 wild type, SEQ ID NO: 1; assay: as above; format: cell-based; conditions: ApPPO1 WT, 37° C., 16 to 20 hours
Experimental: (§1) Then, the extent of tolerance was evaluated.

[19] = tested on: E. coli BT3(ΔPPO) transformed with Myxococcus xanthus MxPPO wild type, SEQ ID NO: 3; assay: as above; format: cell-based; conditions: MxPPO WT
Experimental: as §1

[20] = tested on: E. coli BT3(ΔPPO) transformed with Auxenochlorella protothecoides ApPPO1 (SEQ ID NO: 1) variant Y422M (YM); assay: as above; format: cell-based; conditions: Table 7, light, 37° C., 16 to 20 hours, vs wild type at highest herbicide concentration
[21] = tested on: E. coli BT3(ΔPPO) transformed with Auxenochlorella protothecoides ApPPO1 (SEQ ID NO: 1) variant A215C (AC); assay: as above; format: cell-based; conditions: Table 7, light, 37° C., 16 to 20 hours, vs wild type at highest herbicide concentration
[22] = biological target: T8, Auxenochlorella protothecoides ApPPO1 (SEQ ID NO: 1) variant A215L, fused to MBP (Auxenochlorella protothecoides, UniProt A0A087SQM0, A215L); assay: biochemical
T8 construct: PPO part probably Met + residues 51-532 (transit peptide removed)

[23] = biological target: T9, Auxenochlorella protothecoides ApPPO1 (SEQ ID NO: 1) variant R140A, fused to MBP (Auxenochlorella protothecoides, UniProt A0A087SQM0, R140A); assay: PPO enzyme inhibition assay (IC50), MBP-fused PPO; format: biochemical
T9 construct: PPO part probably Met + residues 51-532 (transit peptide removed)

[24] = biological target: T10, Auxenochlorella protothecoides ApPPO1 (protoporphyrinogen IX oxidase), wild type, SEQ ID NO: 1, fused to MBP (Auxenochlorella protothecoides, UniProt A0A087SQM0); assay: PPO enzyme inhibition assay (IC50), MBP-fused PPO; format: biochemical
T10 construct: PPO part probably Met + residues 51-532 (transit peptide removed)

[25] = tested on: E. coli BT3(ΔPPO) transformed with Auxenochlorella protothecoides ApPPO1 (SEQ ID NO: 1) variant Y422L (YL); assay: Herbicide tolerance test in PPO-deficient E. coli BT3(ΔPPO), growth on plates; format: cell-based; conditions: Table 7, light, 37° C., 16 to 20 hours, vs wild type at highest herbicide concentration
[26] = tested on: E. coli BT3(ΔPPO) transformed with Auxenochlorella protothecoides ApPPO1 (SEQ ID NO: 1) variant Y422C (YC); assay: as above; format: cell-based; conditions: Table 7, light, 37° C., 16 to 20 hours, vs wild type at highest herbicide concentration
[27] = tested on: E. coli BT3(ΔPPO) transformed with Auxenochlorella protothecoides ApPPO1 (SEQ ID NO: 1) variant V360M (VM); assay: as above; format: cell-based; conditions: Table 7, light, 37° C., 16 to 20 hours, vs wild type at highest herbicide concentration
[28] = biological target: T11, Auxenochlorella protothecoides ApPPO1 (SEQ ID NO: 1) variant V213C, fused to MBP (Auxenochlorella protothecoides, UniProt A0A087SQM0, V213C); assay: biochemical
T11 construct: PPO part probably Met + residues 51-532 (transit peptide removed)

[29] = tested on: E. coli BT3(ΔPPO) transformed with Auxenochlorella protothecoides ApPPO1 (SEQ ID NO: 1) variant Y422T (YT); assay: Herbicide tolerance test in PPO-deficient E. coli BT3(ΔPPO), growth on plates; format: cell-based; conditions: Table 7, light, 37° C., 16 to 20 hours, vs wild type at highest herbicide concentration
[30] = Table 7, light, vs wild type at highest herbicide concentration
[31] = Table 8, dark, tiafenacil to 200 μM, flumioxazin to 100 μM, sulfentrazone to 400 μM
[32] = Table 10, light, tiafenacil 2000 μM, flumioxazin to 400 μM, sulfentrazone to 1000 μM
[33] = Table 11, dark, flumioxazin to 1000 μM, sulfentrazone to 4000 μM

SMILES	IC50 [1]	IC50 [3]	relative herbicide tolerance level [4]	relative herbicide tolerance level [6]	relative herbicide tolerance level [10]	IC50 [11]	IC50 [12]	relative herbicide tolerance level [13]	IC50 [14]	IC50 [15]	IC50 [16]	relative herbicide tolerance level [18, 30]	relative herbicide tolerance level [18, 31]	relative herbicide tolerance level [19, 32]	relative herbicide tolerance level [19, 33]	further results
C#CCN1C(=O)COc2cc(F)c(N3C(=O)C4=C(CCCC4)C3=O)cc21 [flumioxazin]	78 nM	154 nM	+ (1-9 fold higher tolerance)	+++ (100-999 fold higher tolerance)	+ (1-9 fold higher tolerance)	58 nM	24 nM	++++ (1,000-9,999 fold higher tolerance)	> 5000 nM	80 nM	546 nM	−	−	−	−	relative herbicide tolerance level [2]: ++ (10-99 fold higher tolerance); relative herbicide tolerance level [5]: ++ (10-99 fold higher tolerance); relative herbicide tolerance level [7]: ++ (10-99 fold higher tolerance); relative herbicide tolerance level [8]: ++ (10-99 fold higher tolerance); relative herbicide tolerance level [9]: + (1-9 fold higher tolerance); relative herbicide tolerance level [17]: ++ (10-99 fold higher tolerance); relative herbicide tolerance level ([19]; Table 9, light, tiafenacil to 2000 μM, saflufenacil to 200 μM, flumioxazin to 100 μM): −
Cc1nn(-c2cc(NS(C)(=O)=O)c(Cl)cc2Cl)c(=O)n1C(F)F [sulfentrazone]	4770 nM	> 10000 nM	+ (1-9 fold higher tolerance)	+ (1-9 fold higher tolerance)	+ (1-9 fold higher tolerance)	1230 nM	534 nM	+++ (100-999 fold higher tolerance)	> 10000 nM	1160 nM	4570 nM	−	−	−	−	relative herbicide tolerance level [20]: + (1-9 fold higher tolerance); relative herbicide tolerance level [21]: + (1-9 fold higher tolerance); IC50 [22]: > 10000 nM; IC50 [23]: 973 nM; IC50 [24]: 348 nM; relative herbicide tolerance level [25]: + (1-9 fold higher tolerance); relative herbicide tolerance level [26]: ++ (10-99 fold higher tolerance); relative herbicide tolerance level [27]: + (1-9 fold higher tolerance); IC50 [28]: 526 nM; relative herbicide tolerance level [29]: + (1-9 fold higher tolerance)
